Earlier results as cited in patent US8637321B2, “Lipidomics approaches for central nervous system disorders” (priority 2005, dated 2014).

Conditions: 26-week randomized trial of 317 schizophrenic patients; versus those randomized to aripiprazole; cited from earlier work

Compound: Cc1cc2c(s1)Nc1ccccc1N=C2N1CCN(C)CC1 [Olanzapine, olanzapine]
- development of weight gain and total cholesterol/triglyceride elevations: more likely
